Sequences of proteins named here, by UniProt entry; tags and fusion partners are left off. A change or cut given only in a name is not applied to a line headed by its entry.
UniProt P63086, whole entry: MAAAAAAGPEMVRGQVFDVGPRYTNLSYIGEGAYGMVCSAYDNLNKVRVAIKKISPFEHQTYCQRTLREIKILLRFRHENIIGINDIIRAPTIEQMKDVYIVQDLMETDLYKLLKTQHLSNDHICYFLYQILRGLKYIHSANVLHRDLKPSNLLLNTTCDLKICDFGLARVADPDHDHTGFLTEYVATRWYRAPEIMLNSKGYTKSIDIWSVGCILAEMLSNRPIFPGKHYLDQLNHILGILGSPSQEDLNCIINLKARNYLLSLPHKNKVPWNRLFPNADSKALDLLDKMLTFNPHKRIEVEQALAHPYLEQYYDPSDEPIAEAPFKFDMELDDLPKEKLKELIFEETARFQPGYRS
UniProt P63086, whole entry D319N: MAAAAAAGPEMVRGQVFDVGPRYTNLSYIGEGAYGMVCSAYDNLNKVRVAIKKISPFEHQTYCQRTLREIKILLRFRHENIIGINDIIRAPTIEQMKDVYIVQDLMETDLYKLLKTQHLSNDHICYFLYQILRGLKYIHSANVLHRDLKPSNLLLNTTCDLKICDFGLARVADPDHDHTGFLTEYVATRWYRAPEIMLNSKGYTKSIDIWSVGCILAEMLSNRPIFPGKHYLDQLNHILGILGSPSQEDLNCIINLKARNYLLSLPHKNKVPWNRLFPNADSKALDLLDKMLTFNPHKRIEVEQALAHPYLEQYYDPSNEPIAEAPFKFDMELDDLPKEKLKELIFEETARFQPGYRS
UniProt P63086, whole entry T157A: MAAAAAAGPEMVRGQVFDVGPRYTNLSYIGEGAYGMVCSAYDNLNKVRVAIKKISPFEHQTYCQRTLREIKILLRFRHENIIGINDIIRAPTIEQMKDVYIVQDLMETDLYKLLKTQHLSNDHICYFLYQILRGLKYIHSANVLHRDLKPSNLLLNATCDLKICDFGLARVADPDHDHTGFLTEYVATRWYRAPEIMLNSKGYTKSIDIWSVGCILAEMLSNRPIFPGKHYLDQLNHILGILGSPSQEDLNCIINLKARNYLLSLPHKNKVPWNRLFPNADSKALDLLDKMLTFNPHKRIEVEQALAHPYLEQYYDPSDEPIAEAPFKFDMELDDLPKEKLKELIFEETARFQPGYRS
UniProt P63086, whole entry T157A/D319N: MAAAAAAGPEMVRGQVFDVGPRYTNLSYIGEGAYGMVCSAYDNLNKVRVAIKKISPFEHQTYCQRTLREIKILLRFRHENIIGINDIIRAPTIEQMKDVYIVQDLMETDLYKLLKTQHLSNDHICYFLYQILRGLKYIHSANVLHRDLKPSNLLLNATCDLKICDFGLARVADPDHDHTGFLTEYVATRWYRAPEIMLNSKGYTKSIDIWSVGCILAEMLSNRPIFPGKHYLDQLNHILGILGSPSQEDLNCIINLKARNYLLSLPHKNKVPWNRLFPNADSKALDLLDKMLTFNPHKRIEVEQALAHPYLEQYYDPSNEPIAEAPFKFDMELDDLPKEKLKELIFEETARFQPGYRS

In patent US9115122B2, “Non-ATP dependent inhibitors of extracellular signal-regulated kinase (ERK)” (UNIVERSITY OF MARYLAND, BALTIMORE, priority 2012, dated 2015):

Experiments:
ERK2 wild type (WT) = ERK2 wild type (WT) (Rattus norvegicus (Rat), UniProt P63086); test: Fluorescence quenching (FQ) binding affinity; conditions: read-out: KD ERK2 WT, 1 nM to 20 μM test compound
ERK2 D319N = ERK2 D319N (Rattus norvegicus (Rat), UniProt P63086, D319N); test: Fluorescence quenching (FQ) binding affinity; conditions: read-out: KD D319N (Site1)
ERK2 T157A/D319N = ERK2 T157A/D319N (Rattus norvegicus (Rat), UniProt P63086, D319N/T157A); test: Fluorescence quenching (FQ) binding affinity; conditions: read-out: KD T157A/D319N (Site1)
ERK2 T157A = ERK2 T157A (Rattus norvegicus (Rat), UniProt P63086, T157A); test: Fluorescence quenching (FQ) binding affinity; conditions: read-out: KD T157A (Site1)
A375 tumor = test: A375 melanoma xenograft in nu/nu mice, combination with temozolomide (TMZ); type: in vivo
Excerpt: FIG. 13. 76.3 enhances TMZ inhibition of A375 melanoma growth in mouse xenographs.
(§1) However, in combination with temozolomide (TMZ), an anti-cancer drug being tested in combination with targeted agents to treat melanoma, 76.3 enhanced TMZ reduction of A375 tumor growth in immune-compromised nu/nu mice (FIG. 13A). Moreover, 76.3 and TMZ also appeared to delay tumor growth in mice harboring A375 tumors indicative of prolonged survival (FIG. 13B).

A375 melanoma cells = test: Proliferation of A375 melanoma cells (Example 3)
Excerpt: We examined the effects of these compounds on proliferation of A375 melanoma cells with BRaf mutations that require ERK activation for survival.
as §1

SMILES | Kd (ERK2 wild type (WT)) [µM] | Kd (ERK2 D319N) [µM] | Kd (ERK2 T157A/D319N) [µM] | Kd (ERK2 T157A) [µM] | overt toxicity or weight loss in treated mice (A375 tumor; compared to controls) | A375 tumor growth in combination with temozolomide (TMZ) (A375 tumor; immune-compromised nu/nu mice) | effect on A375 cell proliferation (A375 melanoma cells)
NCCN1C(=O)S/C(=C\C=C\c2ccccc2)C1=O | 3.3 | 1.9 | 4 | 2.4 |  |  | 
COc1ccc(/C=C2\SC(=O)N(CCN)C2=O)cc1OC | 2.4 | 18 | > 20 | 3 |  |  | 
NCCN1C(=O)S/C(=C\c2ccc3c(c2)OCO3)C1=O | 1.5 | 13.4 | > 20 | 8.1 | no overt toxicity or weight loss | enhanced TMZ reduction of A375 tumor growth | little effect
